Key:
H6-CmnO with CmnN = H6-CmnO with CmnN (Saccharothrix mutabilis, UniProt A6YEI6); test: ATP/PPi exchange assay; settings: 100 nM H6-CmnO with 1.6 μM CmnN, 1 mM β-Lys, 15 min
H6-VioO with VioN = H6-VioO with VioN (Streptomyces vinaceus, UniProt Q6WZ98); test: ATP/PPi exchange assay; settings: 100 nM H6-VioO with 1.6 μM VioN, 1 mM β-Lys, 1 hr

## NCCC[C@H](N)CC(=O)O [β-Lys]
H6-CmnO with CmnN
  ATP/PPi exchange assay: The addition of purified CmnN to the CmnO reactions
H6-VioO with VioN
  ATP/PPi exchange assay: VioN to the VioO reactions resulted in β-Lys activation
